# Reference: ChEMBL document CHEMBL4354845, “Discovery and Structure-Activity Relationships of Nociceptin Receptor Partial Agonists That Afford Symptom Ablation in Parkinson's Disease Models” (J Med Chem, 2020)
# By UniProt entry, the sequences of proteins in these tests, tags left out.
# UniProt P41146, whole entry: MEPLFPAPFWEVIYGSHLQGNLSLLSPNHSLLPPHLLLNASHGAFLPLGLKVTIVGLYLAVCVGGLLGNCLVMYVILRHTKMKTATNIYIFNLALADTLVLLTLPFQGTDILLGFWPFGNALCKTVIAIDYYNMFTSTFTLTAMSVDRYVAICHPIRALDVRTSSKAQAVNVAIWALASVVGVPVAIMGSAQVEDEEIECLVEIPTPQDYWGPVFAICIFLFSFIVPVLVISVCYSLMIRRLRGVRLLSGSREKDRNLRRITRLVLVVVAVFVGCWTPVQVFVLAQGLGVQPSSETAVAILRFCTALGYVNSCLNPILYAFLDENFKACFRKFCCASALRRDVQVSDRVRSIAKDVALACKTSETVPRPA
# Biological target: Nociceptin receptor (Homo sapiens) (UniProt P41146)
# Assay: Agonist activity at human NOP expressed in CHO cell membrane incubated for 60 mins by [35S]GTPgammaS binding assay relative to N/OFQ
smiles,measurement,value
CC(C)[C@H]1CC[C@@H](N2CCC(n3cc(CNC(=O)[C@@H](N)CCCNC(=N)N)c4ccccc43)CC2)CC1,Activity,11.1%
